Laboratory results: ChEMBL document CHEMBL1129627, “Nonlinear quantitative structure-activity relationship for the inhibition of dihydrofolate reductase by pyrimidines” (J Med Chem, 1996)

Molecular target: T1, Dihydrofolate reductase (Escherichia coli, UniProt P0ABQ4)
T1 sequence (P0ABQ4 whole entry): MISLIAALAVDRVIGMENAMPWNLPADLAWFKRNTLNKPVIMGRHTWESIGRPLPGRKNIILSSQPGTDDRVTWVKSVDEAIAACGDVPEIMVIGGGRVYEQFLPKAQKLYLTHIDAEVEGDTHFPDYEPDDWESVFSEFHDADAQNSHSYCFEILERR

- Ki: 19.5 nM
SMILES: COc1cc(CC2CN=C(N)N=C2N)cc(OC)c1N(C)C (stereo unspecified)
